“And” between values parts separate entries of the source, which are not always exact repeats. Equal values may be shown once.
Key:
[1] = target: MDCK-MDR1: overexpression of Pgp (Homo sapiens, UniProt P08183); assay: MDCK-MDR1 permeability and efflux
[2] = S9 microsome stability, CD-1 mouse; conditions: text statement for rodent (mouse and rat) S9
CYP 2C19 = CYP 2C19 (Homo sapiens, UniProt P33261)
CYP 2D6 = CYP 2D6 (Homo sapiens, UniProt P10635); assay: CYP inhibition; conditions: read-out: CYP inhibition IC50; CYP 2D6, substrate Dextromethorphan; ND = Not Detected
[3] = tested on: Caco-2: endogenous transporters; assay: Caco-2 permeability
Sprague Dawley rats = assay: 2-week IV once-a-day toxicity study with 2-week recovery in Sprague Dawley rats; format: in vivo

Sequences of proteins named here, by UniProt entry; tags and fusion partners are left off.
UniProt P08183, whole entry: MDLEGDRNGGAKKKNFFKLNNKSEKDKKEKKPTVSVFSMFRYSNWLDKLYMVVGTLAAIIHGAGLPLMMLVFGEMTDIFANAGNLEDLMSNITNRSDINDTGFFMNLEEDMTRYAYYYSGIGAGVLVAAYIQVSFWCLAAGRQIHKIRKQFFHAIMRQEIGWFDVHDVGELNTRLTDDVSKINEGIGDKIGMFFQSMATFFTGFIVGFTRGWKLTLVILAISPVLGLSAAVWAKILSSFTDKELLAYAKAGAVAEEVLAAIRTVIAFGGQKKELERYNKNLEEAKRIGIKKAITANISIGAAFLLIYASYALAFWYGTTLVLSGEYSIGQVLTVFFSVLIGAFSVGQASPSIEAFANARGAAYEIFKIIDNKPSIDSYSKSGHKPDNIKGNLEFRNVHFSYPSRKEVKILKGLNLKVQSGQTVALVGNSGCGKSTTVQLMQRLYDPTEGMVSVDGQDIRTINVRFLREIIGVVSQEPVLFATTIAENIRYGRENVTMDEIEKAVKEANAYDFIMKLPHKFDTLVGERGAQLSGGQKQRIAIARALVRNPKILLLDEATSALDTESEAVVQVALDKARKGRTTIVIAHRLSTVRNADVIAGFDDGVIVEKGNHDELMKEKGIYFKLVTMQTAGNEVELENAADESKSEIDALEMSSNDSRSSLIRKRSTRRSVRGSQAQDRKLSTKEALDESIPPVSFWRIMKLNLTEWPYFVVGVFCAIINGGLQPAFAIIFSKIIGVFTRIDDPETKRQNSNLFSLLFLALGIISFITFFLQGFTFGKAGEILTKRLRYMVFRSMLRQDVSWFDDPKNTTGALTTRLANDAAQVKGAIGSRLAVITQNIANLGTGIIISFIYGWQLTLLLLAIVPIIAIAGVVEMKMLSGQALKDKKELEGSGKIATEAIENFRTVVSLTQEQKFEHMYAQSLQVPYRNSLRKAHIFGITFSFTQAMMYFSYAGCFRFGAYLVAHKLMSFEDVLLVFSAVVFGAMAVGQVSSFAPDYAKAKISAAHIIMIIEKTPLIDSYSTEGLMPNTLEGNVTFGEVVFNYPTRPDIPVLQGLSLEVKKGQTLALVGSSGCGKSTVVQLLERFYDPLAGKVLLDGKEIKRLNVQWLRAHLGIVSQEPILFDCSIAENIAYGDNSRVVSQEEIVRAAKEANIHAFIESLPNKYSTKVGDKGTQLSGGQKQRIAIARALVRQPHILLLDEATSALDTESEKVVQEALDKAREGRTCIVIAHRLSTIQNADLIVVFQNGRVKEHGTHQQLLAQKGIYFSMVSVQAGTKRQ
UniProt P33261, whole entry: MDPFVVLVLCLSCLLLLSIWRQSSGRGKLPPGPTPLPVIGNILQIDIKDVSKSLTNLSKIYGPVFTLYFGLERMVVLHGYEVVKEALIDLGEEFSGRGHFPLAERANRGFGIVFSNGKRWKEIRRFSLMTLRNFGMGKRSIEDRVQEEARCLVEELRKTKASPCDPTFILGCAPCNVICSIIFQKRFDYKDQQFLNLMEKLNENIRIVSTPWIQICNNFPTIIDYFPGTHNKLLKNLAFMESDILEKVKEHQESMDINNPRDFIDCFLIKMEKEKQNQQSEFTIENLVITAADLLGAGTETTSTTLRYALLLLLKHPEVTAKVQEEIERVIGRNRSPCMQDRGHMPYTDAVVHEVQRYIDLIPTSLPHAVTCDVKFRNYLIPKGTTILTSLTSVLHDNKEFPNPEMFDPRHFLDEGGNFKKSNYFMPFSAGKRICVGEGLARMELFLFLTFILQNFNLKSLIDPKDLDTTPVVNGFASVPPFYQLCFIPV
UniProt P10635, whole entry: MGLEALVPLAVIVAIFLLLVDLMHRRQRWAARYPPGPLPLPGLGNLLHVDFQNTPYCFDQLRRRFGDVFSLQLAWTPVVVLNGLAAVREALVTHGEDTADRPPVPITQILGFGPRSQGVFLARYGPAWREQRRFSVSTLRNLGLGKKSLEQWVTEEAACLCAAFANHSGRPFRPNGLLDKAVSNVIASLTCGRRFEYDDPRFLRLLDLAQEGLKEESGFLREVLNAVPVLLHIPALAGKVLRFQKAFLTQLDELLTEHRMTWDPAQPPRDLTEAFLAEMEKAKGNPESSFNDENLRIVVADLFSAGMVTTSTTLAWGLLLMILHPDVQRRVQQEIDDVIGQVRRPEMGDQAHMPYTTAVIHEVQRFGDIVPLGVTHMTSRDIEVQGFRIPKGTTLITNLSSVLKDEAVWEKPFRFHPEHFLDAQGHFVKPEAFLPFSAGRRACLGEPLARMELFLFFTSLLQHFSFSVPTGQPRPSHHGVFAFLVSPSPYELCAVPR

SMILES: CO[C@H]1/C=C/O[C@@]2(C)Oc3c(C)c(O)c4c(=O)c(c5oc6cc(OCCN(C)C)cc(O)c6nc-5c4c3C2=O)NC(=O)/C(C)=C\C=C\[C@H](C)[C@H](O)[C@@H](C)[C@@H](O)[C@@H](C)[C@H](OC(C)=O)[C@@H]1C
- Papp A→B [1]: 13.3 nm/s
- Papp B→A [1]: 104 nm/s
- recovery [1]: 48.2% and 46.3%
- Mean (B-A/A-B) Efflux Ratio ([1]; MDCK-MDR1): 7.8
- half-lives, rodent S9 microsomal stability [2]: greater than 120 min
- IC50 (CYP 2C19): 2.54 µM
- IC50 (CYP 2D6): 2.81 µM
- Papp B→A [3]: 29.2 nm/s
- Mean (B-A/A-B) Efflux Ratio ([3]; Caco-2): 2.49
- dose with apparent minimal prolongation of activated partial thromboplastin time in males (Sprague Dawley rats; after 14-day recovery period): 10 mg/kg/day
- albumin concentration (Sprague Dawley rats; combination with vancomycin, end of treatment): minimal decrease
- tolerability (Sprague Dawley rats; rat, IV QD 14 days, 0.1-10 mg/kg/day): well-tolerated
